Reference: patent EP0167459B1, “2-Amino oxazolines and process for their preparation” (priority 1984, dated 1986)

By UniProt entry, the sequences of proteins in these tests, tags left out.
UniProt P23975, whole entry: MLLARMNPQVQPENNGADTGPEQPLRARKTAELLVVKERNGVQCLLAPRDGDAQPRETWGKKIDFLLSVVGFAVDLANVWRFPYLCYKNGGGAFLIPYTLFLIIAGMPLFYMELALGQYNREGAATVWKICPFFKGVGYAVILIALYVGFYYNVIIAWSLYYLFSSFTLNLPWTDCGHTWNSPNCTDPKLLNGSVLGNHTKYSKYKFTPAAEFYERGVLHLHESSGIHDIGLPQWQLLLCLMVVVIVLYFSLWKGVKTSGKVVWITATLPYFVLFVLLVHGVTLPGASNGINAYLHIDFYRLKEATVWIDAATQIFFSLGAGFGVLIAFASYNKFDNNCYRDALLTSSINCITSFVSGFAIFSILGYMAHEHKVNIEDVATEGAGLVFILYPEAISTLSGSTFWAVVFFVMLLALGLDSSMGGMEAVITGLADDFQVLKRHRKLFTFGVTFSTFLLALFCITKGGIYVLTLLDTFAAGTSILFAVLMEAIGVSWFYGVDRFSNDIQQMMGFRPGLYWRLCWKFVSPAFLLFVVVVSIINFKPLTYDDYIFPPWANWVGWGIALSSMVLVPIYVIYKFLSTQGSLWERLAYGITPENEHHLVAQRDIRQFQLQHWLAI
UniProt P31645, whole entry: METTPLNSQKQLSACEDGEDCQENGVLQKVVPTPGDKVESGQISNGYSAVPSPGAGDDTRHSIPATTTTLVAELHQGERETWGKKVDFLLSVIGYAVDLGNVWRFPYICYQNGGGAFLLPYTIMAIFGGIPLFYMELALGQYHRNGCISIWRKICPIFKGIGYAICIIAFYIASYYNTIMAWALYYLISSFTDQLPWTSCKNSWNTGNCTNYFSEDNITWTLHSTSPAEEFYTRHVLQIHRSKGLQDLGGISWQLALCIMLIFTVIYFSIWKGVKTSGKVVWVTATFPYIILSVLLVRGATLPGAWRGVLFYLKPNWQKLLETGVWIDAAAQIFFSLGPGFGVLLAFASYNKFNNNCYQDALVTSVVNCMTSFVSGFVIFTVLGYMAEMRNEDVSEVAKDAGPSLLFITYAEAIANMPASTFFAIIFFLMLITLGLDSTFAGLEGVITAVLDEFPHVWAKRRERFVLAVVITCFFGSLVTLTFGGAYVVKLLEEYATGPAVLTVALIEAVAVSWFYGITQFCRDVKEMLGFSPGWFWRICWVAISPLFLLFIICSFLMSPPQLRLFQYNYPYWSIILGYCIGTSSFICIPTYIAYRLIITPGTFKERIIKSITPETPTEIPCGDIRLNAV
UniProt Q01959, whole entry: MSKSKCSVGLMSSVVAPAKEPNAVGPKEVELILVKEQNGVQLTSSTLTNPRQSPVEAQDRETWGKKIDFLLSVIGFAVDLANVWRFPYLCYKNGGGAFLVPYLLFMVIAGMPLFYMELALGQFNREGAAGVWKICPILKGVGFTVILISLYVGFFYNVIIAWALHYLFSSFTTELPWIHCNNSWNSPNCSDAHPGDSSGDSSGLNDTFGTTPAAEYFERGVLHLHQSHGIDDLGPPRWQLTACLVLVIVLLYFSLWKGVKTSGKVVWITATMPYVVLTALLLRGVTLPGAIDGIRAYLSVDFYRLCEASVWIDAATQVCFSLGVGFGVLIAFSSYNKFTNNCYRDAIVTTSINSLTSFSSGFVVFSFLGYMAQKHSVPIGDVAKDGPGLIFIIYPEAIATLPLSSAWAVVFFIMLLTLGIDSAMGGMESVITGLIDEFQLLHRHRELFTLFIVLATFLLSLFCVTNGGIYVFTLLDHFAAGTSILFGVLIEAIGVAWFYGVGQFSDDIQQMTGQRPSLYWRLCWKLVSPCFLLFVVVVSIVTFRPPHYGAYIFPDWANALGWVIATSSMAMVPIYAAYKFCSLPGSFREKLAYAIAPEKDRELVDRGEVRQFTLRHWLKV

Tests used:
NAd = NAd (Homo sapiens, UniProt P23975); experiment: Inhibition of neurotransmitter uptake in vitro, noradrenaline; type: cell-based; settings: read-out: UPTAKE NEUROTR[…] VITRO IC 50 M NAd; NAd = Noradrénaline; tested form: HCl
5-HT = 5-HT (Homo sapiens, UniProt P31645); experiment: Inhibition of neurotransmitter uptake in vitro, 5-HT; type: cell-based; settings: read-out: UPTAKE NEUROTR[…] VITRO IC 50 M 5-HT; 5-HT = 5-hydroxytryptophane (so in the source); tested form: HCl
DA = DA (Homo sapiens, UniProt Q01959); experiment: Inhibition of neurotransmitter uptake in vitro, dopamine; type: cell-based; settings: read-out: UPTAKE NEUROTR[…] VITRO IC 50 M DA, tested form: HCl
RECEPTEURS α2 = experiment: Affinity for the α2 receptor in vitro; type: binding; settings: read-out: AFFINITE RECEPTEURS α2 IN VITRO IC 50 M; tested form: HCl

Row | SMILES | IC50 (NAd) [nM] | IC50 (5-HT) [nM] | IC50 (DA) [nM] | IC50 (RECEPTEURS α2) [nM]
1 | NC1=NC(Cc2ccccc2)CO1 (single isomer, unassigned) [ex. 9] | 1200 | 53000 | 8300 | 36
2 | NC1=NC(Cc2ccccc2)CO1 (single isomer, unassigned) [ex. 14] | 1000 | – | – | 40
3 | COc1ccccc1CC1COC(N)=N1 (centres unmarked) | 1000 | – | – | 3.7
